The text below walks through data of patent publication US7674902B2, “Luminescent metal complexes for monitoring renal function” (priority 2004, dated 2010).

This data set in a line: Biodistribution of radiolabelled DTPA complexes in normal rats, compared with 99mTc-DTPA positive control. As to conditions: normal Sprague-Dawley rats; 111In-labelled complex. Format: in vivo. As to the method:
Commercially available DTPA kit (Draximage Co., Ontario, Canada) was labeled with ^99mTc by the standard procedure described in the package insert that was supplied with the kit, and was administered to Sprague-Dawley rats (3 rats for each time point of 15 minutes, 60 minutes, 120 minutes, and 24 hours). The biodistribution data, shown in FIG. 7, serves as a positive control for determining whether the novel compounds of the present invention clear via glomerular filtration.
A mixture of the stock solution of DTPA-mono(7-amino-4-methylcoumarin)amide ligand (1 mg/mL in 0.5M sodium acetate buffer, 100 μL), obtained from Gunma University, Japan (Ozaki, et. al. Reference 30), sodium acetate solution (0.5M, 100 μL), and commercially available ^111InCl3 solution (0.1M HCl, 100-200 μCi/100 μL) was adjusted to pH 4.5 and incubated at ambient temperature for 30 minutes. The resulting indium complex was purified by reverse phase HPLC and administered to Sprague-Dawley rats. The biodistribution was carried out in the same manner as that of ^99mTc-DTPA in Example 1 (FIG. 8).

For “^111In-DTPA-mono(coumarin amide) complex [Example 2]”, the “clearance through the kidneys” value is “cleared substantially through the kidneys” and the “hepatobiliary clearance (relative to reference complex)” value is “slightly more hepatobiliary clearance than ^99mTc-DTPA”.
